Results from patent US11691969B2, “Pyridazinones as PARP7 inhibtors” (Ribon Therapeutics, Inc., priority 2019, dated 2023).

Sequences of proteins named here, by UniProt entry; tags and fusion partners are left off.
UniProt Q7Z3E1, whole entry: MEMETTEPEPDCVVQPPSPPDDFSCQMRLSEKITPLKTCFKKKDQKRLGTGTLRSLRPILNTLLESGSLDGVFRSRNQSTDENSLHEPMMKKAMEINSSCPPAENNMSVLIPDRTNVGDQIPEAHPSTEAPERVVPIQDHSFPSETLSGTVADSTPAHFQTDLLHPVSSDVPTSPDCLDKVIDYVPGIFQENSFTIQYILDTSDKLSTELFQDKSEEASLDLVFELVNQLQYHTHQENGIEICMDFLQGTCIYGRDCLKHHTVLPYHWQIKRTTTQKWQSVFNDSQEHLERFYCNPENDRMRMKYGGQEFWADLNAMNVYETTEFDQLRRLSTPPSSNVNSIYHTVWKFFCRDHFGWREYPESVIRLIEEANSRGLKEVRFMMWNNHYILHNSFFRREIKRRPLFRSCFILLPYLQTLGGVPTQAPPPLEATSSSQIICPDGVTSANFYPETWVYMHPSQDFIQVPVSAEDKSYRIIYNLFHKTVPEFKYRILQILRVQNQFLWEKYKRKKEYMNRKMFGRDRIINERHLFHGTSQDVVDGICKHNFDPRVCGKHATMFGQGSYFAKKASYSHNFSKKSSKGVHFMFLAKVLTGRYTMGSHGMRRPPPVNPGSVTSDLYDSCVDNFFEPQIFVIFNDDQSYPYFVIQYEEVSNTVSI

Molecular target: PARP7 (Homo sapiens (Human), UniProt Q7Z3E1)
Test: TR-FRET assay: displacement of biotinylated Probe A from the TIPARP active site (Enzymatic Assay for Inhibition of PARP7)
Settings: TIPARP 6 nM, Probe A 2 nM, 25° C.
Experimental: Example A. Enzymatic Assay for Inhibition of PARP7
Displacement of Probe A, a biotinylated probe binding to the TIPARP active site, was measured using a time-resolved fluorescence energy transfer (TR-FRET) assay. 20 nL of a dose response curve of each test compound was spotted in black 384-well polystyrene proxiplates (Perkin Elmer) using a Mosquito (TTP Labtech). Reactions were performed in a 8 μl volume by adding 6 μL of TIPARP and Probe A in assay buffer (20 mM HEPES pH=8, 100 mM NaCl, 0.1% bovine serum albumin, 2 mM DTT and 0.002% Tween20), incubating with test compound at 25° C. for 30 min, then adding 2 μL of ULight-anti 6×His and LANCE Eu-W1024 labeled streptavidin (Perkin Elmer). The final concentrations of TIPARP and Probe A were 6 nM and 2 nM, respectively. The final concentration of ULight-anti 6×His and LANCE Eu-W1024 labeled streptavidin were 4 nM and 0.25 nM, respectively. Reactions were incubated at 25° C. for an additional 30 min, then read on an Envision platereader equipped with a LANCE/DELFIA top mirror (Perkin Elmer) using excitation of 320 nm and emission of 615 nm and […] with a […]. The ratio of the 665/615 nm emission were calculated for each well to determine the amount of complex of TIPARP and Probe Ain each well. […]

| Compound | IC50 |
| --- | --- |
| C[C@@H](CO[C@@H]1CCN(C2CCN(c3cnc(Cl)cn3)CC2)C1=O)Nc1cn[nH]c(=O)c1C(F)(F)F | < 100 nM |
| C[C@@H](CO[C@@H]1CCN(C2CCN(c3cnc(C#N)cn3)CC2)C1=O)Nc1cn[nH]c(=O)c1C(F)(F)F | < 100 nM |
